In US20060276412A1, “METHODS AND COMPOSITIONS FOR MANAGING PSYCHOTIC DISORDERS” (priority 2005, published 2006):

Legend:
Format in all cases: in vivo, rats
Details in all cases: 3 mg/kg ziprasidone
[1] = tested on: serotonin (5HT) in medial prefrontal cortex; test: Brain microdialysis: serotonin in mPFC
From the text: (§1) 62 adult Sprague-Dawley male rats (Harland, Indianapolis) weighing 300-350 g were used in the following studies. The rats were quarantined for at least five days in group housing. Following the quarantine procedure, rats were maintained in individual cages. For surgical implantation with intracerebral guides, guides were inserted directly above either the hypothalamus (HT) (31 rats), or the medial prefrontal cortex (mPFC) (31 rats). Stereotaxic coordinates (Paxinos and Watson, 1986) provided below were used to position the guide cannulae and/or probes: Animals were anesthetiszed according using standard procedures. The head of each animal was shaved from the front of the eyes to the back of the skull. Shaved areas were disinfected, and the animals were placed in stereotaxic frame ear bars. The animal was aligned with the incisor bar. The animal's scalp was cut with a sharp #15 scalpel blade. If the bone began to bleed, bone wax was applied to the incision. Periosteal tissue was cleaned from the skull to the lateral ridges with a cotton swab, and clamps were used to pull the skin out of the way. The probe or guide was placed in the clamp, such that the angled outlet cannula of the microdialysis probe was angled towards the animal's tail. The target coordinates were calculated, and this point was marked on the skull. Two holes in opposing skull bones were drilled for bone anchor screws and thread screws. The dura was torn away with a sharp, pointed object. The guide cannulae were placed at the dorsal/ventral zero point. […] Using dental acrylic, the cannulae were cemented to the bone anchor screws. The cement was allowed to harden and the rodent was removed from the stereotaxic frame. The cranial and caudal aspects of the incision were sutured. The animals were allowed to recover for three to five days. Stylets in the guides were replaced with dialysis probes on the evening prior to study to allow for animal acclimation and to reestablish the integrity of the blood brain barrier. […] Rats were weighed pre-surgery, every 1-2 days post-surgery until time of microdialysis, and postmortem. Microdialysis probes used in the experiments described below were first soaked in standard Ringer's perfusion medium for 30 minutes. Inlet and outlet tubing was connected to each probe using flanged connectors. The outlet tubing was connected to a fraction collector, and the inlet was connected to and […] syringe drive. The probes were immersed in fresh Ringer's solution and flushed with Ringer's perfusion medium at a rate of 2 μl/min for 1 hour. The probe was then transferred to the intracerebral guide on the rat's skull. […] Water was added to obtain a final concentration of 0.3 mg/ml. Ziprasidone was administered to rats at a final concentration of 3 mg/kg intraperitoneally. 1.2 ml of water was added to a single vial of GEODON® (containing 20 mg ziprasidone and 4.7 mg methanesulfonic acid solubilized by 294 mg of sulfobutylether b-cyclodextrin sodium). Water was added to obtain a final concentration of 3 mg/ml ziprasidone. Zonisamide was administered to rats in a final concentration of 25 mg/kg intraperitoneally in a vehicle of 13.4% EtOH, 20.1% propylene glycol, 66.5% saline. Zonisamide was dissolved in DMSO. […] The final concentration of zonisamide was 7.5 mg/ml. The drug solution was maintained at 37° C. prior to injection. The rats were divided into ten test groups. Five animals were analyzed for each test group. The test groups were as follows: For the microdialysis experiments, perfusion consisted of 2 μl/min delivery of sterile standard Ringer's solution for intervals of 20 minutes. Final collection volumes were 40 μl. 30 μl samples were analyzed for each analyte: DA, NE, 5HT. 12 pre-dose samples and 12 post dose samples were collected every 20 minutes for a duration of 4 hours, both pre-dose and post-dose. Six samples from the pre-dose and post-dose collections were analyzed for norepinephrine. […]

[2] = tested on: norepinephrine (NE) in medial prefrontal cortex; test: Brain microdialysis: norepinephrine in mPFC
From the text: as §1

[3] = tested on: dopamine (DA) in medial prefrontal cortex; test: Brain microdialysis: dopamine in mPFC
From the text: as §1

[4] = tested on: serotonin (5HT) in hypothalamus; test: Brain microdialysis: serotonin in hypothalamus
From the text: as §1

[5] = tested on: norepinephrine (NE) in hypothalamus; test: Brain microdialysis: norepinephrine in hypothalamus
From the text: as §1

[6] = tested on: dopamine (DA) in hypothalamus; test: Brain microdialysis: dopamine in hypothalamus
From the text: as §1

With `O=C1Cc2cc(CCN3CCN(c4nsc5ccccc45)CC3)c(Cl)cc2N1` [ziprasidone] the “Serotonin concentrations in mPFC” value ([1]; 3 HOUR AVE) was 88.108 % baseline, the “Serotonin concentrations in mPFC” value ([1]; 40 min post dose) was 100.119 % baseline and the “Serotonin concentrations in mPFC” value ([1]; 80 min post dose) was 80.736 % baseline. For the same compound, the “Serotonin concentrations in mPFC” value ([1]; 120 min post dose) was 80.678 % baseline, the “Serotonin concentrations in mPFC” value ([1]; 160 min post dose) was 76.032 % baseline and the “Serotonin concentrations in mPFC” value ([1]; 200 min post dose) was 96.412 % baseline. The “Serotonin concentrations in mPFC” value ([1]; 240 min post dose) was 82.843 % baseline, the “Serotonin concentrations in mPFC” value ([1]; -20 min pre dose) was 103.695 % baseline and the “Serotonin concentrations in mPFC” value ([1]; -60 min pre dose) was 101.254 % baseline. For the same compound, the “Serotonin concentrations in mPFC” value ([1]; -100 min pre dose) was 95.050 % baseline, the “Norepinephrine concentrations in mPFC” value ([2]; 3 HOUR AVE) was 140.23 % baseline and the “Norepinephrine concentrations in mPFC” value ([2]; 20 min post dose) was 152.679 % baseline. The “Norepinephrine concentrations in mPFC” value ([2]; 60 min post dose) was 173.477 % baseline, the “Norepinephrine concentrations in mPFC” value ([2]; 100 min post dose) was 139.468 % baseline and the “Norepinephrine concentrations in mPFC” value ([2]; 140 min post dose) was 135.555 % baseline. The “Norepinephrine concentrations in mPFC” value ([2]; 180 min post dose) was 120.130 % baseline, the “Norepinephrine concentrations in mPFC” value ([2]; 220 min post dose) was 120.068 % baseline and the “Norepinephrine concentrations in mPFC” value ([2]; -40 min pre dose) was 102.187 % baseline. The “Norepinephrine concentrations in mPFC” value ([2]; -80 min pre dose) was 96.063 % baseline, the “Norepinephrine concentrations in mPFC” value ([2]; -120 min pre dose) was 101.750 % baseline and the “Dopamine concentrations in mPFC” value ([3]; 3 HOUR AVE) was 180.798 % baseline. The “Dopamine concentrations in mPFC” value ([3]; 40 min post dose) was 224.637 % baseline, the “Dopamine concentrations in mPFC” value ([3]; 80 min post dose) was 220.406 % baseline and the “Dopamine concentrations in mPFC” value ([3]; 120 min post dose) was 204.006 % baseline. The “Dopamine concentrations in mPFC” value ([3]; 160 min post dose) was 155.426 % baseline, the “Dopamine concentrations in mPFC” value ([3]; 200 min post dose) was 144.584 % baseline and the “Dopamine concentrations in mPFC” value ([3]; 240 min post dose) was 109.557 % baseline. The “Dopamine concentrations in mPFC” value ([3]; -20 min pre dose) was 105.629 % baseline, the “Dopamine concentrations in mPFC” value ([3]; -60 min pre dose) was 88.131 % baseline and the “Dopamine concentrations in mPFC” value ([3]; -100 min pre dose) was 106.240 % baseline. The “Serotonin concentrations in hypothalamus” value ([4]; 3 HOUR AVE) was 122.083 % baseline, the “Serotonin concentrations in hypothalamus” value ([4]; 40 min post dose) was 147.484 % baseline and the “Serotonin concentrations in hypothalamus” value ([4]; 80 min post dose) was 131.609 % baseline. The “Serotonin concentrations in hypothalamus” value ([4]; 120 min post dose) was 122.447 % baseline, the “Serotonin concentrations in hypothalamus” value ([4]; 160 min post dose) was 127.006 % baseline and the “Serotonin concentrations in hypothalamus” value ([4]; 200 min post dose) was 140.594 % baseline. The “Serotonin concentrations in hypothalamus” value ([4]; +220 min post dose) was 88.071 % baseline, the “Serotonin concentrations in hypothalamus” value ([4]; -20 min pre dose) was 105.804 % baseline and the “Serotonin concentrations in hypothalamus” value ([4]; -60 min pre dose) was 109.552 % baseline. The “Serotonin concentrations in hypothalamus” value ([4]; -100 min pre dose) was 84.644 % baseline, the “Norepinephrine concentrations in hypothalamus” value ([5]; 3 HOUR AVE) was 182.01 % baseline and the “Norepinephrine concentrations in hypothalamus” value ([5]; 20 min post dose) was 221.458 % baseline. For the same compound, the “Norepinephrine concentrations in hypothalamus” value ([5]; 60 min post dose) was 286.925 % baseline, the “Norepinephrine concentrations in hypothalamus” value ([5]; 100 min post dose) was 186.090 % baseline and the “Norepinephrine concentrations in hypothalamus” value ([5]; 140 min post dose) was 130.369 % baseline. For the same compound, the “Norepinephrine concentrations in hypothalamus” value ([5]; 180 min post dose) was 123.480 % baseline, the “Norepinephrine concentrations in hypothalamus” value ([5]; 220 min post dose) was 115.795 % baseline and the “Norepinephrine concentrations in hypothalamus” value ([5]; -40 min pre dose) was 110.416 % baseline. For the same compound, the “Norepinephrine concentrations in hypothalamus” value ([5]; -80 min pre dose) was 95.746 % baseline, the “Norepinephrine concentrations in hypothalamus” value ([5]; -120 min pre dose) was 93.838 % baseline and the “Dopamine concentrations in hypothalamus” value ([6]; 3 HOUR AVE) was 122.276 % baseline. The “Dopamine concentrations in hypothalamus” value ([6]; 40 min post dose) was 155.264 % baseline, the “Dopamine concentrations in hypothalamus” value ([6]; 80 min post dose) was 133.547 % baseline and the “Dopamine concentrations in hypothalamus” value ([6]; 120 min post dose) was 119.303 % baseline. For the same compound, the “Dopamine concentrations in hypothalamus” value ([6]; 160 min post dose) was 108.156 % baseline, the “Dopamine concentrations in hypothalamus” value ([6]; 200 min post dose) was 114.436 % baseline and the “Dopamine concentrations in hypothalamus” value ([6]; 240 min post dose) was 96.372 % baseline. For the same compound, the “Dopamine concentrations in hypothalamus” value ([6]; -20 min pre dose) was 96.640 % baseline, the “Dopamine concentrations in hypothalamus” value ([6]; -60 min pre dose) was 110.026 % baseline and the “Dopamine concentrations in hypothalamus” value ([6]; -100 min pre dose) was 93.334 % baseline.
